# Ab-14 heavy chain CDR variants: yeast mating affinities

All variants were tested on one target, the spike HR2 peptide PDVDLGDISGINAS (SARS-CoV-2).

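Designed CDR sequences, proposed from the first random library and measured here. Group labels follow the data file (Rand: our label for a block that the file lists under HC and that is probably the random mutants of the ten best first-round binders; En: ensemble of fine-tuned language models; HC: hill climbing; Gen: genetic algorithm; Gibbs: Gibbs sampling; a sequence that several methods proposed may carry one label only). In AlphaSeq, yeast of one mating type display the scFv and yeast of the other type display the target. Pairs that bind mate more often; barcode pairs of the diploids are counted by sequencing. Read counts were normalised to the haploid input and turned into Kd by a linear fit to BCL2-family pairs of known affinity, for each replicate. Each pool was mated in six replicate cultures.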

Parent scFv Ab-14: VH joined to VL by a 15-residue (Gly4Ser)3 linker. Changes lie in the heavy chain CDRs alone.
VH: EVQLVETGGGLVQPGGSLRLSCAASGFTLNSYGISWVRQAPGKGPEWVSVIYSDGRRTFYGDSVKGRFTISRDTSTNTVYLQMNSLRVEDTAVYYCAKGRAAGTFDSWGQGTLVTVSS
VL: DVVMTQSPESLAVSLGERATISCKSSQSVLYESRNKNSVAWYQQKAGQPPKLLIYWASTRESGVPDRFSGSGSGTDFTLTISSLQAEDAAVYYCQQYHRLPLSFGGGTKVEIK

Variants are written as CDR1, CDR2 and CDR3 of the heavy chain (limits as in the source). Parent: GFTLNSYGIS, VIYSDGRRTFYGDSVK, GRAAGTFDS. This list holds designs with more than six substitutions. Each Kd is an estimate from the mating assay, the geometric mean of the replicates in which the pair was seen; lower is stronger. A pair that was not seen in any replicate is written "nd"; this usually means weak binding, but a binder can also be missed. In the paper, a design with two or fewer of six values counts as a poor binder. The parent sequence was in this pool as ten entries: three were never detected, three once, and four in most replicates, with averages from 2.2 nM to 240 nM. As a blank, each scFv also met three strains without target: over all heavy chain designs, 1% of these pairings were detected, typically at 120 nM and seldom below 7.0 nM. Also given: how often the same scFv was detected with the empty control strains. A sequence measured in both rounds can read differently, since the two assays cover different ranges.

With GFDLNEYGIS / VIYADGRRTAYSDSVK / GGNAGTFDD [En_HC] the result was 640 pM (6 of 6 replicates; controls 0 of 18). The variant AFDIEDYGIS / VIYADGVRAMYVESVK / GGIAGTFEI [En_Gibbs] showed 5.0 nM (6 of 6 replicates; controls 0 of 18). For GFDLNEYGIS / VIYADGMRTYYADDVK / GEVAGTFDV [En_Gen], the assay gave 330 pM (6 of 6 replicates; controls 0 of 18). The variant GFDLDEYGIS / VIYADGRRTFYIDSVK / GETAGTFDL [En_HC] gave 1.9 nM (6 of 6 replicates; controls 1 of 18). With GFDLNEYGIS / VIYADGRRTSYQDSVK / GEAAGTFDV [En_HC] the result was 660 pM (6 of 6 replicates; controls 0 of 18). For GFDLNEYGIS / VIYADGMRTFYADSVK / GGNAGTFDV [En_Gen], the assay gave 360 pM (6 of 6 replicates; controls 0 of 18). The variant GFDLNEYGIS / VIYADGQRKFYADKVK / GENAGTFNV [En_HC] gave 350 pM (6 of 6 replicates; controls 0 of 18). For GFDLNEYGIS / VIYADGRRTAYDDSVK / GQVAGTFDV [En_HC], the assay gave 290 pM (6 of 6 replicates; controls 0 of 18).

The variant GFDLNEYGIS / VIYADGRRTFYSDSVK / GEHAGIFDV [En_HC] gave 1.9 nM (6 of 6 replicates; controls 1 of 18). The variant GFSLDEYGIS / VIYADGVRRSFIDNVK / GFNGEVSIV [En_Gibbs] showed nd (0 of 6 replicates; controls 0 of 18). The variant GMSLDEYGIS / VIYADGMRTFYANTVK / GEDGVFYNQ [En_Gibbs] showed nd (0 of 6 replicates; controls 1 of 18). The variant GFDLNEYGIS / VIYADGMRTSYADSVK / GQNAGTFDL [En_Gen] showed 440 pM (6 of 6 replicates; controls 0 of 18). The variant GFDLQDYGIS / VIYADGVRYAFQNSVK / GQIAGTFNS [En_Gibbs] gave nd (0 of 6 replicates; controls 0 of 18). With GFQLDEMGIS / VIYADGARTQYKSKVK / GGNGDKFDV [En_Gibbs] the result was nd (0 of 6 replicates; controls 1 of 18). The variant GFDIDEYGIS / VIYADGKRQALINAVK / GTLSGTFIA [En_Gibbs] showed nd (0 of 6 replicates; controls 0 of 18). The variant GIDLEEYGIS / VIYADGMRKAYINSVK / GEDSVTTFV [En_Gibbs] showed nd (0 of 6 replicates; controls 0 of 18).

The variant GFDLNEYGIS / VIYADGMRVRVANNFK / GKLNTTGIV [En_Gibbs] showed nd (0 of 6 replicates; controls 0 of 18). With GFDLDEYGIS / VIYADGMRTYYADSVK / GENAGTFDQ [En_Gen] the result was 2.2 nM (6 of 6 replicates; controls 0 of 18). For GFDLESYGIS / VIYADGRRTAYADSVK / GNVAGTFDV [En_HC], the assay gave 270 pM (6 of 6 replicates; controls 0 of 18). The variant GFDLNEYGIS / VIYADGMRTAYSDSVK / GDNAGTFDV [En_Gen] showed 610 pM (6 of 6 replicates; controls 0 of 18). For GFSIDEYGIS / VIYADGARASYAPKVK / GQQAGDLIE [En_Gibbs], the assay gave nd (0 of 6 replicates; controls 0 of 18). The variant GFDLDEYGIS / VIYADGKRTAYADSVK / GEVAGTFDV [En_Gen] showed 590 pM (6 of 6 replicates; controls 0 of 18). With GFDLQEYGIS / VIYADGVRYAYQNSFK / GQIAGTINS [En_Gibbs] the result was nd (0 of 6 replicates; controls 0 of 18). For GFDLNEYGIS / VIYADGVRTAYADSVK / GGNAGTFDM [En_Gen], the assay gave 700 pM (6 of 6 replicates; controls 0 of 18).

The variant GFDLNEYGIS / VIYADGMRTAYVDSVK / GSNAGTFDI [En_Gen] gave 84 pM (6 of 6 replicates; controls 0 of 18). For GFDLQEYGVS / VIYADGVRSAYTDSVK / GRVTIGYLD [En_Gibbs], the assay gave 3.9 nM (6 of 6 replicates; controls 0 of 18). The variant GFDLNEYGIS / VIYADGRRTAYTDSVK / GEIAGTFDV [En_HC] gave 380 pM (6 of 6 replicates; controls 0 of 18). For SFTLNDYGIS / VIYSDMRRQQYIDSVK / ARAAGTFDS [Rand], the assay gave nd (0 of 6 replicates; controls 0 of 18). For GFDLEEYGIS / VIYADGRRVSYSQSVK / GVYSGTHYV [En_Gibbs], the assay gave nd (0 of 6 replicates; controls 0 of 18). The variant GDFLDEYGIS / VIYADGMRSSYSNDVK / GNNFGNKMV [En_Gibbs] gave nd (0 of 6 replicates; controls 1 of 18). For GFDLDEYGIS / VIYADGKRTAYSDSVK / GNVAGTFDQ [En_Gen], the assay gave 79 pM (6 of 6 replicates; controls 0 of 18). The variant GFDLNEYGIS / VIYADGKRTAYSDSVK / GGNAGTFDI [En_Gen] gave 790 pM (6 of 6 replicates; controls 1 of 18).

For GYDIQDYGIS / VIYADGVRTAYHDSVK / GQMAGFFIL [En_Gibbs], the assay gave nd (0 of 6 replicates; controls 1 of 18). The variant GFDLKEYGIS / VIYADGVRTHYADDVK / GKHTGTNMA [En_Gibbs] showed nd (0 of 6 replicates; controls 0 of 18). The variant GKHLDEFGIS / VIYADGLRMHYANSVK / GEMAGTFTT [En_Gibbs] gave nd (0 of 6 replicates; controls 0 of 18). For GFSLDEYGIS / VIYADGRRTFYADSVK / GNNAGTFDS [En_HC], the assay gave 410 pM (6 of 6 replicates; controls 0 of 18). For GFDLEEMGIS / VIYADGSRKKYQDAVK / GGVSGDFDE [En_Gibbs], the assay gave nd (0 of 6 replicates; controls 0 of 18). The variant GFDLNEYGIS / VIYADGSRTAYADSVK / GQNAGTFDM [En_Gen] gave 1.2 nM (6 of 6 replicates; controls 1 of 18). With GFGINEYGIS / VIYADGMRSFYANSVK / GAHAGYMVW [En_Gibbs] the result was nd (0 of 6 replicates; controls 1 of 18). The variant GFDLNEYGIS / VIYADGRRKFYADSVK / GQLAGTFDQ [En_HC] gave 490 pM (6 of 6 replicates; controls 0 of 18).

With GFSLDEYGIS / VIYADGLRSKYQDKVK / GELALSGDT [En_Gibbs] the result was 150 nM (1 of 6 replicates; controls 0 of 18). The variant GFDLNEYGIS / VIYADGRRSFYADSVK / GQLAGTFDE [En_HC] gave 92 pM (6 of 6 replicates; controls 0 of 18). For GFDLNEYGIS / VIYADGMRTQYSDSVK / GEQAGTFDL [En_HC], the assay gave 160 pM (1 of 6 replicates; controls 0 of 18). With GFDLNEYGIS / VIYADGVRTFYADDVK / GNNAGTFDV [En_Gen] the result was 490 pM (6 of 6 replicates; controls 0 of 18). With GFDLNEYGIS / VIYADGRRTFYSDSVK / GTVGGTFDM [En_HC] the result was 230 pM (6 of 6 replicates; controls 0 of 18). The variant GFDLNEYGIS / VIYADGMRTAYSDDVK / GNVAGTFDM [En_Gen] showed 210 pM (6 of 6 replicates; controls 0 of 18).

A selection of 3 entries from above:

| CDR-H1 | CDR-H2 | CDR-H3 | group | apparent Kd | seen in | empty controls |
|---|---|---|---|---|---|---|
| GFDLKEYGIS | VIYADGVRTHYADDVK | GKHTGTNMA | En_Gibbs | nd | 0 of 6 | 0 of 18 |
| GFDLNEYGIS | VIYADGRRTAYTDSVK | GEIAGTFDV | En_HC | 380 pM | 6 of 6 | 0 of 18 |
| GFDLDEYGIS | VIYADGMRTYYADSVK | GENAGTFDQ | En_Gen | 2.2 nM | 6 of 6 | 0 of 18 |

Reference: Li et al. 2023, doi:10.1038/s41467-023-39022-2. File: FLAb, binding data.